Measurements reported in patent publication US10442819B2, “Tricyclic compounds as inhibitors of mutant IDH enzymes” (Merck Sharp & Dohme Corp., priority 2014, dated 2019).

Chains of the proteins cited; added tags and fusions are not shown.
UniProt O75874, whole entry R132H: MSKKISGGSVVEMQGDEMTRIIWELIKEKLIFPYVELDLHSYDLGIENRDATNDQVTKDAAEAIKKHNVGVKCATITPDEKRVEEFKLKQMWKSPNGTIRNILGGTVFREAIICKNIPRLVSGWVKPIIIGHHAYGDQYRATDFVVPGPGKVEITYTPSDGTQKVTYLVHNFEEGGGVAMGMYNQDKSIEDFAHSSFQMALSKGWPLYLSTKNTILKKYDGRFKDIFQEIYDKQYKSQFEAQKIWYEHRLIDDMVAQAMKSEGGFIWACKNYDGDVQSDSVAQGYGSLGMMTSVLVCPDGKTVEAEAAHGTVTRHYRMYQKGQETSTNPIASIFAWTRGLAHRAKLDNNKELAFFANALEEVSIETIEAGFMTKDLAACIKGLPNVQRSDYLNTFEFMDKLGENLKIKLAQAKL

Target: R132H mutant IDH1 enzyme (Homo sapiens (Human), UniProt O75874, R132H)
Assay: R132H IDH1 Enzymatic Assay
Format: biochemical
Conditions: R132H mutant IDH1 enzyme 1.5 nM final; luminescence readout; read-out: IC50

pIC50 | SMILES
8.52 | CCO[C@H]1CC[C@H](C(=O)N2Cc3cccnc3Nc3ccc(N4C[C@H]5CC[C@@H]4CO5)cc32)CC1(F)F [Example 332, 6-{[(1S,4S)-4-ethoxy-3,3-difluorocyclohexyl]carbonyl}-8-[(1R,4R)-2-oxa-5-azabicyclo[2.2.2]oct-5-yl]-6,11-dihydro-5H-pyrido[2,3-b][1,5]benzodiazepine]
7.14 | C[C@H](N(C)C1CCC(C(=O)N2Cc3cccnc3Nc3ccc(N4CCOCC4)cc32)CC1)C(F)(F)F (stereo partly drawn) [Example 503, Trans-N-methyl-4-[(8-morpholin-4-yl-5,11-dihydro-6H-pyrido[2,3-b][1,5]benzodiazepin-6-yl)carbonyl]-N-[(1)-2,2,2-trifluoro-1-methylethyl]cyclohexanamine]
6.03 | O=C(N1Cc2cccnc2Nc2ccc(N3CCOCC3)cc21)C1(F)CCCCC1 [Example 73, 6-[(1-fluorocyclohexyl)carbon-yl]-8-morpholin-4-yl-6,11-dihydro-5H-pyrido[2,3-b][1,5]benzodiazepine]
6.20 | COC1CCC(C(=O)N2Cc3cccnc3Nc3ccc(N4CCC(OC)CC4)cc32)CC1 (stereo not shown) [Example 199, 6-[(4-methoxycyclohexyl)carbonyl]-8-(4-methoxypiperidin-1-yl)-6,11-dihydro-5H-pyrido[2,3-b][1,5]benzodiazepine]
6.81 | O=C([C@H]1CC[C@@H](NC2(C(F)(F)F)CC2)CC1)N1Cc2cccnc2Nc2ccc(N3CCOCC3)cc21 [Example 444, cis-4-[(8-morpholin-4-yl-5,11-dihydro-6H-pyrido[2,3-b][1,5]benzodiazepin-6-yl)carbonyl]-N-[1-(trifluoromethyl)cyclopropyl]-cyclohexanamine]
6.69 | CO[C@H]1CC[C@H](C(=O)N2Cc3cccnc3Nc3ccc(-c4cnn(C(C)C)c4)cc32)CC1 [Example 369, 6-[(trans-4-methoxycyclohexyl)carbonyl]-8-[1-(1-methylethyl)-1H-pyrazol-4-yl]-6,11-dihydro-5H-pyrido[2,3-b][1,5]benzodiazepine]
6.21 | CO[C@H]1CC[C@H](C(=O)N2Cc3cccnc3Nc3ccc(-c4cnc(C)n4C)cc32)CC1 [Example 186, 8-(1,2-dimethyl-1H-imidazol-5-yl)-6-[(trans-4-methoxycyclohexyl)carbonyl]-6,11-dihydro-5H-pyrido[2,3-b][1,5]benzodiazepine]
7.15 | CCC[C@H]1CC[C@H](C(=O)N2Cc3cccnc3Nc3ccccc32)CC1 [Example 60, 6-[(trans-4-propylcyclohexyl)carbon-yl]-6,11-dihydro-5H-pyrido[2,3-b][1,5]benzodiazepine]
8.52 | CCO[C@@H]1CC[C@@H](C(=O)N2Cc3cccnc3Nc3ccc(N4C[C@H]5CC[C@@H]4CO5)cc32)CC1(F)F (single isomer, unassigned) [Example 331]
7.19 | CO[C@H]1COC2(CCN(c3ccc4c(c3)N(C(=O)[C@H]3CC[C@H](OC(C)C)CC3)Cc3cccnc3N4)CC2)C1 [Example 308, 8-[(3R)-3-methoxy-1-oxa-8-azaspiro[4.5]dec-8-yl]-6-{[trans-4-(1-methylethoxy)cyclohexyl]car-bonyl}-6,11-dihydro-5H-pyrido[2,3-b][1,5]benzodiazepine]
6.97 | CO[C@H]1CC[C@H](C(=O)N2Cc3cccnc3Nc3ccc(-c4ccncc4F)cc32)CC1 [Example 408, 8-(3-fluoropyridin-4-yl)-6-[(trans-4-methoxycyclohexyl)carbonyl]-6,11-dihydro-5H-pyrido[2,3-b][1,5]benzodiazepine]
6.82 | C[C@@H]1C[C@H](C)C[C@@H](C(=O)N2Cc3cccnc3Nc3ccc(N4CCOCC4)cc32)C1 [Example 121, 6-{[(1r,3R,5S)-3,5-dimethylcyclohexyl]car-bonyl}-8-morpholin-4-yl-6,11-dihydro-5H-pyrido[2,3-b][1,5]benzodiazepine]

SMILES | pIC50
CO[C@H]1CC[C@H](C(=O)N2Cc3cccnc3Nc3ccc(N4CCOCC(C)C4)cc32)CC1 (stereo partly drawn) [Example 233, 6-[(trans-4-methoxycyclohexyl)carbonyl]-8-(6-methyl-1,4-oxazepan-4-yl)-6,11-dihydro-5H-pyrido[2,3-b][1,5]benzodiazepine] | 6.51

pIC50: −log10 of the molar value.
